For one compound, IC50 and survival rate results are on record in patent US8361993B2, “Hydroxy-bisphosphonic acid derivatives as vector targeting bone tissue” (Universite de Nantes, priority 2008, dated 2013).

Each structure is given as a SMILES string. Like-named read-outs stand apart in the source and are kept apart here.

The test system of one assay is murine fibroblast L929. Put plainly: cell proliferation test, 72hrs in 96-well plates, non-tumoral line. The assay is classed as cell-based. The conditions noted are these: read-out: IC50 L929 (ethanol), ethanol as solvent (final 1% in the well).
The test system of assay [1] is POS-1 mouse osteosarcoma. Put plainly: cell proliferation test, 72hrs in 96-well plates, tumoral line. It counts as cell-based.
Assay [2] deals with POS-1 mouse osteosarcoma. The assay can be described thus: in vivo survival in lung nodule model after intravenous POS-1 cells. The following applies: C3H/HeN mice, injection of 112 nmol/kg 7 days after tumoral cells; as soon as the 40th day, versus untreated control; FIG. 1.

As to `NP(=O)(OCc1ccccc1)N(CCCl)CCCl` (stereo not shown), the IC50 in the assay with murine fibroblast L929 was above 500 µM; in the assay with POS-1 mouse osteosarcoma [1] (read-out: IC50 POS-1 (DMSO), DMSO as solvent (final 1% in the well)) it was above 500 µM; in the assay on POS-1 mouse osteosarcoma [1] (read-out: IC50 POS-1 (ethanol), ethanol as solvent (final 1% in the well)), above 500 µM. Further, in the assay with POS-1 mouse osteosarcoma [2], the survival rate entry was “significant increase”.
